Experiments:
[1] = target: Kappa-type opioid receptor (Homo sapiens, UniProt P41145); experiment: DRUGMATRIX: Opiate kappa (OP2, KOP) radioligand binding (ligand: [3H] Diprenorphine); details: hek293
Mu-type opioid receptor = Mu-type opioid receptor (Homo sapiens, UniProt P35372); experiment: DRUGMATRIX: Opiate mu (OP3, MOP) radioligand binding (ligand: [3H] Diprenorphine); details: cho-k1

Protein sequences, listed by entry. Tags and fused reporters are not part of them. Lines headed by an entry give the natural chain unless they say otherwise; changes in a name come on top.
UniProt P41145: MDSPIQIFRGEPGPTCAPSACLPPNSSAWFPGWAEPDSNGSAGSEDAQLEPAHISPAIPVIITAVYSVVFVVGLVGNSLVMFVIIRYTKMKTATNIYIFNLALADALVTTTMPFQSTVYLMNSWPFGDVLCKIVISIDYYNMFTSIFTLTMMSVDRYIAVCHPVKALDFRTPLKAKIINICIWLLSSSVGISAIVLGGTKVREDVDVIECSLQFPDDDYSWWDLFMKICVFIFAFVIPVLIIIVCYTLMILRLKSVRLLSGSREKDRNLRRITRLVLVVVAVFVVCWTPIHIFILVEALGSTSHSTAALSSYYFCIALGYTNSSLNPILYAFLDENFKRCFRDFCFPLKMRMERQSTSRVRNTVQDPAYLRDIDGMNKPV
UniProt P35372, whole entry, looked up: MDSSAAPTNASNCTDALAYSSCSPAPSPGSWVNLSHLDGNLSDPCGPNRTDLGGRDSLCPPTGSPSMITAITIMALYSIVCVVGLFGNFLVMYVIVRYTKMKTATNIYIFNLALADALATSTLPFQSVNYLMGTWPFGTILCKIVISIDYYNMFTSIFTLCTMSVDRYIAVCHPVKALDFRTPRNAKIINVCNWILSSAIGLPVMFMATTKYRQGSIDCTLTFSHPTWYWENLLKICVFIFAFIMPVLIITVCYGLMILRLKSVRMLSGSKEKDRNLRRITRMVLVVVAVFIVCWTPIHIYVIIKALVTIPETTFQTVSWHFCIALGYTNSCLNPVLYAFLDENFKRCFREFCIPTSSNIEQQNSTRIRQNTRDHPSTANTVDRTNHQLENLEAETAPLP

O=[N+]([O-])c1cc([As](=O)(O)O)ccc1O
Not Active: IC50 [1] | Ki [1] | IC50 (Mu-type opioid receptor) | Ki (Mu-type opioid receptor)

Oc1ccc(/C=C/c2cc(O)cc(O)c2)cc1 [RESVERATROL]
Not Active: IC50 [1] | Ki [1] | IC50 (Mu-type opioid receptor) | Ki (Mu-type opioid receptor)

CC(C)c1cccc(C(C)C)c1O
Not Active: IC50 [1] | Ki [1]

CC(C)(C)NCC(O)c1cc(Cl)c(N)c(Cl)c1 (configuration not stated)
Not Active: IC50 [1] | Ki [1] | IC50 (Mu-type opioid receptor) | Ki (Mu-type opioid receptor)

C[C@@H]1C[C@@H]([C@H](O)CC2CC(=O)NC(=O)C2)C(=O)[C@@H](C)C1
Not Active: IC50 [1] | Ki [1] | IC50 (Mu-type opioid receptor) | Ki (Mu-type opioid receptor)

COc1ccc(C(CN(C)C)C2(O)CCCCC2)cc1 (configuration not stated)
Not Active: IC50 [1] | Ki [1] | IC50 (Mu-type opioid receptor) | Ki (Mu-type opioid receptor)

CCN(CC)N=O [N-NITROSODIETHYLAMINE]
Not Active: IC50 [1] | Ki [1] | IC50 (Mu-type opioid receptor) | Ki (Mu-type opioid receptor)

C=CCO [ALLYL ALCOHOL]
Not Active: IC50 [1] | Ki [1] | IC50 (Mu-type opioid receptor) | Ki (Mu-type opioid receptor)

C=C(Cl)Cl [1,1-DICHLOROETHENE]
Not Active: IC50 [1] | Ki [1] | IC50 (Mu-type opioid receptor) | Ki (Mu-type opioid receptor)

N#C[C@H](O[C@@H]1O[C@H](CO[C@@H]2O[C@H](CO)[C@@H](O)[C@H](O)[C@H]2O)[C@@H](O)[C@H](O)[C@H]1O)c1ccccc1
Not Active: IC50 [1] | Ki [1] | IC50 (Mu-type opioid receptor) | Ki (Mu-type opioid receptor)

CCN1C[C@]2(COC)[C@H](O)C[C@H](OC)[C@@]34[C@@H]5C[C@@]6(O)[C@H](OC(=O)c7ccccc7)[C@@H]5[C@@](OC(C)=O)([C@@H]([C@H](OC)[C@H]23)[C@@H]14)[C@@H](O)[C@@H]6OC [ACONITINE]
Not Active: IC50 [1] | Ki [1] | IC50 (Mu-type opioid receptor) | Ki (Mu-type opioid receptor)

From ChEMBL document CHEMBL1909046, “DrugMatrix in vitro pharmacology data”
